Results as given in US8541462B2, “Tetrahydrocarbazole derivatives as ligands of G-protein coupled receptors” (AEterna Zentaris GmbH, priority 2007, dated 2013).

Sequences of proteins named here, by UniProt entry; tags and fusion partners are left off.
UniProt Q01776, whole entry: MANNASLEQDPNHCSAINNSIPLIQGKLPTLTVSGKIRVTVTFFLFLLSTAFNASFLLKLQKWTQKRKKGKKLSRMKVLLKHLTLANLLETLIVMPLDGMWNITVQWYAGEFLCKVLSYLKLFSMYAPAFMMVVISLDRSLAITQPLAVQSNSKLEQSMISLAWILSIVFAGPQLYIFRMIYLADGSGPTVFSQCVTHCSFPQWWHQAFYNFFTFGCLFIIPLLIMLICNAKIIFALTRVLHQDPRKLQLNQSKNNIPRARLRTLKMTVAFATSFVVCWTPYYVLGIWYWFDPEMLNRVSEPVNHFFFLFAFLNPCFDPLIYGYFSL

Tests used:
[1] = Pharmacokinetic study (oral, cannulated rats, LC/MS of plasma); conditions: male Wistar rats, 5 mg/kg, mixture of both compounds in Solutol HS 15/PEG300 (3:1)
Description: Adult male Wistar rats weighing 278-290 g (Jinvier, France) were used in the study. Animals were housed in a temperature-controlled room (20-24° C.) and maintained in a 12 h light/12 h dark cycle. Food and water were available ad libitum.
For surgery, rats were anaesthetised with a ketamine (90 mg/kg)/xylazine (10 mg/kg) mixture, and cannulated with silicone tubing via the right jugular vein. Prior to the first blood sampling, animals were connected to a counterbalanced system and tubing to perform blood sampling in the freely moving rat.
Separate stock solutions (5 mg/ml) of compound 52 of the invention and prior art substance WO 2006/005484—substance 76 were prepared in Solutol HS 15/PEG300 (3:1). The whole process was performed under constant stirring. Half of the volume of the vehicle was added first. After sonication (5 minutes), the second half of the vehicle was added and the vials were again sonicated. All the solutions were clear and free of particles or agglomerates.
Immediately before application, the dosing mixture was prepared by adding equal volumes of the stock solutions to end up with a final concentration of 1 mg/ml for each compound. The mixture was applied orally to rats with an application volume of 5 ml/kg.
Blood samples (200 μl) were taken 1 hour before application and 1, 2, 4, 6, 8, 12 and 24 hours after. They were centrifuged at 650 g for 10 minutes at 4° C. and then the plasma was harvested and kept at −20° C. until LC/MS analysis.

[2] = target: LHRH receptor (endogenous GnRH receptor of alpha T3-1 cell line) (Mus musculus, UniProt Q01776); test: LHRH-receptor binding assay (displacement of [125I] cetrorelix on alpha T3-1 cells); conditions: WO 2006/005484-substance 75 = 100%
Description: For LHRH receptor binding studies, an assay system using alpha T3-1 cell line with endogenous GnRH receptor expression was employed (Windle et al., Mol. Endocrinol. 1990, 4(4): 597-603).
Iodinated cetrorelix was used as a tracer with about 80% of peptide capable of specific receptor association.
For displacement binding assays, the cells were incubated with approximately 200 pM [^125l] cetrorelix and different concentrations of unlabeled test compounds as competitor. The cell suspension in binding medium was layered on top of silicon/paraffin oil, incubated for 60 min at 37° C. and separated by centrifugation. The tips of the tubes containing the cell pellet were cut off, subsequently cell pellet and supernatant were analyzed by gamma-radiation analysis.
The amount of unspecific binding was determined by including unlabeled cetrorelix at 1 μM final concentration and was typically ≦10% of total binding. IC50 values were calculated by using the GraphPad Prism analysis program (GraphPad Software Inc.).

[3] = Metabolic stability testing in liver microsomes; conditions: mixed-gender human liver microsomes, 1 mg microsomal protein/mL, initial concentration 10 μM, 60 minutes at 37° C.; WO 2006/005484-substance 7 = 100%
Description: Subcellular fractions of different tissues can be prepared easily by ultracentrifugation. Most commonly these are prepared from the liver of animals and human donors to gain information about the potential hepatic clearance of compounds (first-pass elimination of drugs). Human or animal (e.g. dog, mouse, rat) subcellular fraction like liver microsomes, or possibly the fraction called S9 have therefore become a very commonly and widely used as an in vitro model to investigate mainly cytochrome P450 dependent phase I (but also phase II) metabolism that takes place in the liver.
In order to reflect the standard proportion of the enzymes in human and animal livers, liver microsomes are usually pooled from a number of […] of the same sex (or mixed-gender). By supplementing the liver microsomes with relevant cofactors and other components it is possible to investigate and distinguish between CYPs, flavin-containing monooxygenase (FMO) and UDP-glucuronosyltransferase (UGT) activities.
Selected compounds of the invention were tested for their stability in mixed-gender human liver microsomes and compared to pertinent prior art compounds.
Under the test conditions applied (1 mg microsomal protein/mL, initial concentration of 10 μM, and incubation for 60 minutes at 37° C.) the following normalized results were obtained.

AUC0-tz [1] [ng·h/mL] | Cmax obs [1] [ng/mL] | tmax obs [1] [h] | Normalized Affinity [2] [%] | Normalized microsomal stability [3] [%] | SMILES
96.2 | 12.5 | 4.0 | 97 | 61 | CCC(C)[C@H](NC(=O)Cc1ccccc1F)C(=O)N[C@]1(C(=O)N[C@H](C(N)=S)C(C)CC)CCc2[nH]c3c(C(F)(F)F)cccc3c2C1 (some centres unmarked)
– | – | – | 25 | – | CCC(C)[C@H](NCCc1ccc(F)cc1)C(=O)N[C@]1(C(=O)N[C@H](C(N)=S)C(C)CC)CCc2[nH]c3c(Cl)cc(F)cc3c2C1 (some centres unmarked)
– | – | – | 95 | – | CCC(C)[C@H](NC(=O)Cc1ccc(F)cc1F)C(=O)N[C@]1(C(=O)N[C@H](C(N)=S)C(C)CC)CCc2[nH]c3c(Cl)cc(F)cc3c2C1 (some centres unmarked)
– | – | – | 100 | – | CCC(C)[C@H](NC(=O)[C@@]1(NC(=O)[C@@H](NC(=O)Cc2ccccc2F)C(C)CC)CCc2[nH]c3c(C(F)(F)F)cccc3c2C1)C(N)=O (some centres unmarked)
